Results as given in patent publication US5030649A, “2-aminoethylamine derivatives, compositions of the same and use of said compounds in medicine” (dated 1991).

Assay: Mouse tail-flick test (analgesic activity, subcutaneous)
Conditions: subcutaneous in isotonic saline, 30 min after dosing, activity = percent of mice doubling initial reaction time

CN(C)C[C@H](c1ccccc1)N(C)C(=O)Cc1cccc(C(F)(F)F)c1
MOUSE TAIL-FLICK ED50 SUBCUTANEOUS: 0.187 mg/kg

CN(C)C[C@H](Cc1ccccc1)N(C)C(=O)Cc1ccc(Cl)c(Cl)c1
MOUSE TAIL-FLICK ED50 SUBCUTANEOUS: 9.09 mg/kg

CN(C)C[C@H](c1ccccc1)N(C)C(=O)Cc1ccc2c(c1)CCCC2
MOUSE TAIL-FLICK ED50 SUBCUTANEOUS: 0.412 mg/kg
